Source: PubChem BioAssay (several laboratories)
This is a sample that favours compounds with a hit; in the whole collection about 0.94% have one here.
p-CIP stab down: p/CIP protein destabilization; Q05BA5; F442A p/CIP-EGFP cells, EGFP fluorescence, 16 h; decrease of EGFP signal, % at 10 µM; actives 0.01% (n = 290,000); AID 1984;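 active = EGFP signal decrease of at least 30% at 10 µM or well 3 SD below plate mean, unless failing retest; inactive = the rest, including hits failing retest or dose response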
PKA-R2B activ: activators of human PKA-R2B complex; P22694+P31323; PKA-R2B holoenzyme dissociation, Cy5-IP20 fluorescence polarization; R2B truncated from residue 108, S112A mutant; 0% DMSO only, 100% 113 µM cGMP; activation, % at 11.4 µM; actives 0.079% (n = 340,000);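 active = activation above a cutoff set at the mean over all compounds plus 3 SD, cut at about 18% in these data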;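 note: higher means more holoenzyme dissociation and a rise in polarization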
UUG fidelity: modulators of start codon recognition fidelity in yeast. S. cerevisiae UUG-firefly luciferase reporter, luminescence/redox ratio. activity score, % at 18.7 µM. 0.13% of 350,000 active. AID 602363;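 active = replicate mean at a twofold rise or more, about +100% in these data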;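 also: firefly luciferase made from a UUG start codon reports start codon fidelity; reporter light over untreated wells divided by growth signal over untreated wells; some hits fall short of that in this replicate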
ABCB6 inh 2: inhibitors of human ABC transporter ABCB6 | actives 0.19% (n = 360,000) | Q9NP58 | K562-ABCB6 porphyrin accumulation, flow cytometry, 1 h; active compounds read low | AID 602162 | fluorescence ratio to DMSO, % at 10 µM;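 active = fluorescence ratio to DMSO below 75%, the collection mean minus 3 SD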;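 note: signal is porphyrin accumulated inside mitochondria; 100% equals median channel fluorescence of DMSO control wells; lower ratio means ABCB6 inhibition with less porphyrin fluorescence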
Granule exo inh: lytic granule exocytosis inhibition | TALL-104 LAMP-1 surface exposure, flow cytometry; cells stimulated with thapsigargin and PMA | inhibition, % at 10 µM | actives 0.66% (n = 360,000);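 active = inhibition above about 55%, limit read from the data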
PKA-R1A activ: activates the PKA-R1A holoenzyme complex | activation, % at 11.4 µM | actives 0.083% (n = 340,000) | AID 504707 | PKA-R1A dissociation, Cy5-IP20 fluorescence polarization; scaled: DMSO 0%, 113 µM cGMP 100%;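 active = percent activation above the mean of all tested compounds plus 3 SD, cut at about 19% in these data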;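 note: higher means more PKAc released from R1A so a rise in polarization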
R2B FP artifact: fluorescence polarization artifact in PKA-R2B activator counter-screen | shares compounds with PKA-R2B activ | FP artifact counterscreen | activation, % at 11.4 µM | actives 6% (n = 270) | AID 504796; in the data active = activation above about 20%;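 note: Cy5 labelled IP20 peptide probe with compound but no PKA protein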
PKA-R2B act conf: PKA-R2B complex activation, confirmation; shares compounds with PKA-R2B activ; activation, % at 11.4 µM; fluorescence polarization; actives 9% (n = 270); in the data active = activation above about 19%
R1A FP artifact: fluorescence polarization artifact in PKA-R1A activator counter-screen | shares compounds with PKA-R1A activ | actives 7% (n = 280) | activation, % at 11.4 µM | Cy5-IP20 peptide alone, fluorescence polarization artifact counterscreen;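 active = mean activation over triplicate runs exceeds the adjusted cutoff derived for the parent primary screen, cut at about 19% in these data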;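 note: no PKA protein present so any polarization rise reflects compound interference; 0% = tracer peptide mix alone and 100% = mix with added PKA catalytic subunit; higher means stronger polarization artifact and likely false positive in parent screen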
PKA-R1A act conf: PKA-R1A complex activation, confirmation | shares compounds with PKA-R1A activ | Cy5-IP20 fluorescence polarization, PKA-R1A holoenzyme dissociation | activation, % at 11.4 µM | actives 9% (n = 280);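 active = mean activation over replicate wells exceeds the adjusted hit threshold taken from the earlier primary screen, cut at about 20% in these data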;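 note: 0% = holoenzyme mix with DMSO only and 100% = cGMP-activated control wells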
* = called active by the depositor.

Cc1ccccc1NC(=O)CCS(=O)(=O)c1ccc(Br)s1 was read as p-CIP stab down -5, PKA-R2B activ 19*, UUG fidelity -7, ABCB6 inh 2 96, Granule exo inh 1, PKA-R1A activ 6, R2B FP artifact -1 and PKA-R2B act conf 0.
Screening COC(=O)c1ccccc1NC(=O)CCS(=O)(=O)c1ccc(Br)s1 returned p-CIP stab down -9, PKA-R2B activ -10, UUG fidelity -1, ABCB6 inh 2 87, Granule exo inh -2 and PKA-R1A activ 0.
`C[C@@H]1CCCCO[C@@H](CN(C)Cc2ccc(C(=O)O)cc2)[C@@H](C)CN([C@H](C)CO)C(=O)c2cc(NC(=O)Nc3ccccc3)ccc2O1` gave UUG fidelity 9.
CCOC(=O)/C(=N\Nc1ccc(Br)cc1)N1CCN(c2ccccc2OC)CC1 was read as p-CIP stab down 1, PKA-R2B activ 21*, UUG fidelity -27, ABCB6 inh 2 97, Granule exo inh 0, PKA-R1A activ -2, R2B FP artifact 1 and PKA-R2B act conf 3.
`CCOC(=O)N1CCN(c2ccccc2OC)CC1` gave p-CIP stab down -16, PKA-R2B activ -9, ABCB6 inh 2 98, Granule exo inh -5 and PKA-R1A activ 8.
For O=C(C1CCC1)N1CC[C@@H]2[C@H](CO)Nc3ccc(C#Cc4cccc(F)c4)cc3[C@@H]21 the results were UUG fidelity -18.
Screening CC(C)Oc1ccc(S(=O)(=O)N2CCCCC2)cc1NC(=O)CC1OC(=O)c2ccccc21 (stereo not drawn) returned PKA-R2B activ 20*, UUG fidelity -11, ABCB6 inh 2 96, Granule exo inh -2, PKA-R1A activ -3, R2B FP artifact -3 and PKA-R2B act conf 0.
`COc1ccc(S(=O)(=O)N2CCC(C(=O)Nc3c(F)cccc3F)CC2)cc1` gave p-CIP stab down -2, PKA-R2B activ 21*, UUG fidelity -4, ABCB6 inh 2 95, Granule exo inh 8, PKA-R1A activ -5, R2B FP artifact 3 and PKA-R2B act conf 1.
`COc1ccc(NC(=O)C2CCN(S(=O)(=O)c3ccccc3)CC2)cc1` gave p-CIP stab down -3, PKA-R2B activ -1, UUG fidelity 17, ABCB6 inh 2 99, Granule exo inh -2 and PKA-R1A activ 0.
Cc1ccccc1-c1cnc2c(c1)C(=O)N([C@H](C)CO)C[C@@H](C)[C@H](CN(C)C(=O)CN(C)C)O2 was read as UUG fidelity 7.

Arranged by length of the SMILES (ascending): some entries from above
Screening COC(=O)c1ccccc1NC(=O)CCS(=O)(=O)c1ccc(Br)s1 returned p-CIP stab down -9, PKA-R2B activ -10, UUG fidelity -1, ABCB6 inh 2 87, Granule exo inh -2 and PKA-R1A activ 0.
Screening CC(C)Oc1ccc(S(=O)(=O)N2CCCCC2)cc1NC(=O)CC1OC(=O)c2ccccc21 (stereo not drawn) returned PKA-R2B activ 20*, UUG fidelity -11, ABCB6 inh 2 96, Granule exo inh -2, PKA-R1A activ -3, R2B FP artifact -3 and PKA-R2B act conf 0.
`C[C@@H]1CCCCO[C@@H](CN(C)Cc2ccc(C(=O)O)cc2)[C@@H](C)CN([C@H](C)CO)C(=O)c2cc(NC(=O)Nc3ccccc3)ccc2O1` gave UUG fidelity 9.

Remaining list, next part.
Screening O=C(Nc1ccc(C(=O)O)cc1)/C(=C\c1ccco1)NC(=O)c1ccc(Br)cc1 returned PKA-R2B activ 24*, UUG fidelity -10, ABCB6 inh 2 97, Granule exo inh -8, PKA-R1A activ 0, R2B FP artifact 4 and PKA-R2B act conf 1.
For O=C(Nc1ccc(C(=O)O)cc1)/C(=C\c1ccco1)NC(=O)c1ccc(Br)o1 the results were p-CIP stab down 0, PKA-R2B activ -3, ABCB6 inh 2 95, Granule exo inh 0 and PKA-R1A activ 11.
For CC1CCN(C(=O)CSc2nc3c(c(=O)n2C)SCC3)CC1 the results were p-CIP stab down 1, PKA-R2B activ 24*, UUG fidelity 0, ABCB6 inh 2 94, Granule exo inh -7, PKA-R1A activ 10, R2B FP artifact 5 and PKA-R2B act conf 0.
Screening Cn1c(SCC(=O)N2CCCC2)nc2c(c1=O)SCC2 returned PKA-R2B activ 2, UUG fidelity -27, ABCB6 inh 2 96, Granule exo inh 1 and PKA-R1A activ -5.
Screening Cn1c(/C(C#N)=C(\O)c2ccc(S(=O)(=O)N3CCCCC3)cc2)nc2ccccc21 returned p-CIP stab down -6, PKA-R2B activ 19*, UUG fidelity -6, ABCB6 inh 2 95, Granule exo inh 0, PKA-R1A activ 0, R2B FP artifact 2 and PKA-R2B act conf 2.
COc1cccc(CC(NC(C)=O)C(=O)NC2CCN(C(=O)C3CCCCC3)CC2)c1OC (stereo not drawn) was read as p-CIP stab down -10, PKA-R2B activ -2, UUG fidelity 0, ABCB6 inh 2 97, Granule exo inh -9 and PKA-R1A activ -1.
`COc1cccc(CC(NC(C)=O)C(=O)NC2CCN(C(=O)c3ccncc3)CC2)c1OC` (stereo not drawn) gave p-CIP stab down 1, PKA-R2B activ 19*, UUG fidelity -3, ABCB6 inh 2 99, Granule exo inh -4, PKA-R1A activ -5, R2B FP artifact 6 and PKA-R2B act conf 2.
For Fc1ccccc1CSc1nnc2ccc(-c3ccncc3)nn12 the results were p-CIP stab down 16, PKA-R2B activ 19*, UUG fidelity -11, ABCB6 inh 2 102, Granule exo inh 0, PKA-R1A activ 2, R2B FP artifact 2 and PKA-R2B act conf 4.
c1ccc(CSc2nnc3ccc(-c4ccncc4)nn23)cc1 was read as p-CIP stab down -7, PKA-R2B activ -1, UUG fidelity -11, ABCB6 inh 2 108, Granule exo inh -2 and PKA-R1A activ 3.
COc1ccc(OC)c(CC(NC(C)=O)C(=O)NC2CCN(c3c(Cc4ccccc4)c(C)nc4ncnn34)CC2)c1 (stereo not drawn) was read as p-CIP stab down 12, PKA-R2B activ 21*, ABCB6 inh 2 93, Granule exo inh 1, PKA-R1A activ 1, R2B FP artifact 1 and PKA-R2B act conf -5.
For Cc1ccccc1COc1ccc2oc(C)c(C(=O)O)c2c1 the results were p-CIP stab down 0, PKA-R2B activ 42*, ABCB6 inh 2 109, Granule exo inh 0, PKA-R1A activ 43*, R2B FP artifact 60*, PKA-R2B act conf 70*, R1A FP artifact 60* and PKA-R1A act conf 67*.
Cc1oc2ccc(OCc3ccccc3F)cc2c1C(=O)O was read as p-CIP stab down 10, PKA-R2B activ -9, UUG fidelity -9, ABCB6 inh 2 94, Granule exo inh 0 and PKA-R1A activ -2.
